Measurements as given in patent US20060079453A1, “Hla binding peptides and their uses” (priority 2002, published 2006).

Target: HLA-DR DRB1*0701 (DR7) (Homo sapiens, UniProt P01903+P01911, A100R/A102G/A103Q/D57E/D86V/E43K/F76Y/K127E/L162R/M171V/P40G/Q125H/Q99D/R33Q/R42Y/R54Q/S133A/S66F/T210M/V115G/Y107V/Y59L/Y89S)
Test: biochemical
Assay type: binding
Details: DRB1 *0701

Molecule	IC50 [µM]
CC[C@H](C)[C@H](N)C(=O)N[C@@H](CS)C(=O)N[C@@H](CC(=O)O)C(=O)N[C@@H](CO)C(=O)N[C@@H](CCCNC(=N)N)C(=O)N[C@H](C(=O)N[C@@H](CC(C)C)C(=O)N[C@@H](CCC(=O)O)C(=O)N[C@@H](CCCNC(=N)N)C(=O)N[C@@H](Cc1ccc(O)cc1)C(=O)N[C@@H](CC(C)C)C(=O)N[C@@H](CC(C)C)C(=O)N[C@@H](CCC(=O)O)C(=O)N[C@@H](C)C(=O)N[C@@H](CCCCN)C(=O)O)C(C)C	57.6
CC[C@H](C)[C@H](NC(=O)[C@H](CC(=O)O)NC(=O)[C@H](CC(=O)O)NC(=O)[C@H](CC(C)C)NC(=O)CNC(=O)[C@H](CC(C)C)NC(=O)[C@@H](NC(=O)[C@H](CO)NC(=O)[C@H](C)NC(=O)CNC(=O)[C@H](CC(C)C)NC(=O)[C@H](CC(C)C)NC(=O)CNC(=O)[C@@H]1CCCN1C(=O)[C@@H](N)CCCNC(=N)N)C(C)C)C(=O)O	0.506
CC(C)C[C@H](NC(=O)[C@H](CCC(N)=O)NC(=O)[C@H](Cc1c[nH]c2ccccc12)NC(=O)[C@H](CC(C)C)NC(=O)[C@H](CC(C)C)NC(=O)[C@H](CCCCN)NC(=O)[C@H](CCC(N)=O)NC(=O)[C@H](CO)NC(=O)[C@H](CCC(N)=O)NC(=O)[C@H](CS)NC(=O)[C@H](CC(N)=O)NC(=O)[C@H](CO)NC(=O)[C@H](CO)NC(=O)[C@@H](N)CCCNC(=N)N)C(=O)N[C@@H](CC(N)=O)C(=O)O	8.92
CC(C)C[C@H](NC(=O)[C@H](CCCCN)NC(=O)CNC(=O)[C@H](CCCNC(=N)N)NC(=O)[C@H](CC(C)C)NC(=O)[C@H](Cc1ccccc1)NC(=O)[C@H](CC(N)=O)NC(=O)[C@@H](N)CO)C(=O)N[C@@H](CCCCN)C(=O)N[C@@H](CC(C)C)C(=O)N[C@@H](Cc1ccc(O)cc1)C(=O)N[C@H](C(=O)NCC(=O)N[C@@H](CCC(=O)O)C(=O)N[C@@H](C)C(=O)O)[C@@H](C)O	3.78
CC(C)C[C@H](NC(=O)[C@H](CCCCN)NC(=O)[C@H](Cc1c[nH]cn1)NC(=O)[C@H](CC(C)C)NC(=O)[C@H](CCC(=O)O)NC(=O)[C@H](CCC(N)=O)NC(=O)[C@H](CO)NC(=O)[C@H](CC(C)C)NC(=O)[C@H](CCCCN)NC(=O)CNC(=O)[C@H](CC(C)C)NC(=O)[C@@H](NC(=O)[C@@H](NC(=O)[C@@H](N)[C@@H](C)O)[C@@H](C)O)C(C)C)C(=O)N[C@@H](CCC(N)=O)C(=O)O	26.1
CSCC[C@H](NC(=O)[C@@H](N)CC(N)=O)C(=O)N[C@@H](CO)C(=O)N[C@@H](CC(C)C)C(=O)N[C@@H](CC(C)C)C(=O)N[C@@H](CCCCN)C(=O)N[C@@H](Cc1c[nH]cn1)C(=O)N[C@@H](CCC(N)=O)C(=O)N[C@@H](CO)C(=O)N[C@@H](CC(C)C)C(=O)N[C@@H](CCCNC(=N)N)C(=O)N1CCC[C@H]1C(=O)N[C@@H](CC(=O)O)C(=O)N[C@@H](CCC(=O)O)C(=O)N[C@@H](CC(=O)O)C(=O)O [NMSLLKHQSLRPDED]	20.6
CC[C@H](C)[C@H](NC(=O)[C@@H](NC(=O)[C@@H](N)CO)C(C)C)C(=O)N[C@@H](CC(C)C)C(=O)N[C@@H](CC(C)C)C(=O)NCC(=O)N[C@@H](CCCNC(=N)N)C(=O)N[C@@H](Cc1c[nH]cn1)C(=O)N[C@@H](CO)C(=O)N[C@@H](CC(C)C)C(=O)N[C@@H](Cc1ccccc1)C(=O)N[C@@H](Cc1c[nH]cn1)C(=O)N1CCC[C@H]1C(=O)N[C@@H](CCC(=O)O)C(=O)N[C@@H](CC(=O)O)C(=O)O [SVILLGRHSLFHPED]	26.1

Same assay, conditions: read-out: DRB1 *0701

Molecule	IC50 [µM]
AALAAAAAAKAAA	1.32
ALIYNYGLLYCFRKD	11.9
KKCLNEILIRCHCQ	16.3
RTVYRDNNPYGVCIM	8.31

Target: HLA-DR DRB1*0802 (DR8) (Homo sapiens, UniProt P01903+P01911, A100R/A103L/A169T/F76Y/H45Y/I96F/K41T/L162R/M171V/P40S/Q125H/Q178H/Q39Y/Q99D/R218S/R42G/S66Y/V115G/W38E)
Test: biochemical
Assay type: binding
Details: not given

Molecule	IC50 [µM]
CC(C)[C@H](NC(=O)[C@H](C)NC(=O)CNC(=O)[C@@H](NC(=O)[C@H](C)NC(=O)[C@H](Cc1ccc(O)cc1)NC(=O)[C@H](CCC(=O)O)NC(=O)[C@H](CC(N)=O)NC(=O)[C@@H](N)CCC(=O)O)[C@@H](C)O)C(=O)N[C@@H](CCCNC(=N)N)C(=O)N1CCC[C@H]1C(=O)N[C@@H](Cc1ccccc1)C(=O)N[C@@H](CCC(N)=O)C(=O)N[C@@H](C)C(=O)N[C@@H](C)C(=O)O	17.3
CC[C@H](C)[C@H](N)C(=O)N[C@@H](CC(C)C)C(=O)N[C@@H](CC(C)C)C(=O)N[C@@H](Cc1c[nH]c2ccccc12)C(=O)N[C@@H](CCC(N)=O)C(=O)N1CCC[C@H]1C(=O)N[C@H](C(=O)N1CCC[C@H]1C(=O)N[C@H](C(=O)N[C@@H](Cc1c[nH]cn1)C(=O)N[C@H](C(=O)N[C@H](C(=O)N1CCC[C@H]1C(=O)N[C@@H](CC(C)C)C(=O)N[C@@H](CO)C(=O)O)C(C)C)[C@@H](C)O)C(C)C)[C@@H](C)CC	13.1
CC(C)C[C@H](NC(=O)[C@H](CCCNC(=N)N)NC(=O)CNC(=O)[C@H](CC(N)=O)NC(=O)[C@H](CC(C)C)NC(=O)[C@H](CCC(N)=O)NC(=O)[C@H](Cc1c[nH]c2ccccc12)NC(=O)[C@@H](N)CC(C)C)C(=O)N[C@@H](CCC(=O)O)C(=O)N[C@@H](Cc1ccc(O)cc1)C(=O)N[C@@H](CS)C(=O)N[C@@H](CC(C)C)C(=O)N[C@@H](CCCCN)C(=O)N[C@@H](CC(=O)O)C(=O)N[C@@H](CCCNC(=N)N)C(=O)O	> 16.3
CC[C@H](C)[C@H](NC(=O)[C@H](CCC(N)=O)NC(=O)[C@H](Cc1ccc(O)cc1)NC(=O)[C@H](CC(C)C)NC(=O)[C@@H](NC(=O)[C@@H](N)CCSC)[C@@H](C)O)C(=O)N[C@@H](CCC(N)=O)C(=O)N[C@H](C(=O)N[C@@H](CCSC)C(=O)N[C@@H](CCCCN)C(=O)N[C@@H](CCCNC(=N)N)C(=O)N[C@@H](CC(N)=O)C(=O)N[C@@H](CCC(N)=O)C(=O)N[C@@H](CCCCN)C(=O)N[C@@H](CCC(N)=O)C(=O)O)C(C)C	0.166
CC[C@H](C)[C@H](NC(=O)[C@H](Cc1c[nH]c2ccccc12)NC(=O)[C@@H](NC(=O)[C@@H](N)C(C)C)[C@@H](C)O)C(=O)NCC(=O)N[C@@H](C)C(=O)N[C@@H](C)C(=O)N1CCC[C@H]1C(=O)N[C@@H](CC(C)C)C(=O)N[C@H](C(=O)N[C@@H](CC(C)C)C(=O)N[C@@H](CO)C(=O)N[C@@H](CCCNC(=N)N)C(=O)N[C@H](C(=O)N[C@H](C(=O)O)C(C)C)[C@@H](C)CC)[C@@H](C)CC	0.731

Same assay, conditions: read-out: DRB1 *0802

Molecule	IC50 [µM]
DRTLMSAMTNLAALE	2.36
KSKFNILSSPLFNNF	0.152

Target: HLA-DR DRB1*0901 (DR9) (Homo sapiens, UniProt P01903+P01911, A100R/A103E/D57H/D86V/F55Y/F60I/F76Y/I96F/K127E/L162R/M171V/P40D/Q125H/Q99R/R33Q/R42F/S133A/S66N/T210M/V115G/W38K/Y107V/Y59G/Y89S)
Test: biochemical
Assay type: binding
Details: DRB1 *0901

Molecule	IC50 [µM]
CC[C@H](C)[C@H](NC(=O)[C@H](CCCCN)NC(=O)[C@H](CC(=O)O)NC(=O)[C@H](C)N)C(=O)N[C@@H](Cc1ccc(O)cc1)C(=O)N[C@@H](CO)C(=O)N[C@H](C(=O)N[C@@H](CO)C(=O)N[C@@H](CCSC)C(=O)N[C@@H](CCCCN)C(=O)N[C@@H](Cc1c[nH]cn1)C(=O)N1CCC[C@H]1C(=O)N[C@@H](CCC(N)=O)C(=O)N[C@@H](CCC(=O)O)C(=O)N[C@@H](CCSC)C(=O)O)[C@@H](C)CC	3.51
CC(C)C[C@H](NC(=O)[C@H](CCC(=O)O)NC(=O)[C@H](CCCCN)NC(=O)[C@H](C)N)C(=O)N[C@@H](CCCCN)C(=O)N[C@@H](Cc1ccccc1)C(=O)N[C@H](C(=O)N[C@H](C(=O)N[C@@H](CC(C)C)C(=O)N[C@H](C(=O)N[C@@H](Cc1ccccc1)C(=O)N[C@@H](CCCNC(=N)N)C(=O)N[C@@H](Cc1c[nH]cn1)C(=O)NCC(=O)N[C@@H](CC(=O)O)C(=O)O)C(C)C)[C@@H](C)O)C(C)C	2.35
CC[C@H](C)[C@H](N)C(=O)N[C@@H](CS)C(=O)N[C@@H](CC(=O)O)C(=O)N[C@@H](CO)C(=O)N[C@@H](CCCNC(=N)N)C(=O)N[C@H](C(=O)N[C@@H](CC(C)C)C(=O)N[C@@H](CCC(=O)O)C(=O)N[C@@H](CCCNC(=N)N)C(=O)N[C@@H](Cc1ccc(O)cc1)C(=O)N[C@@H](CC(C)C)C(=O)N[C@@H](CC(C)C)C(=O)N[C@@H](CCC(=O)O)C(=O)N[C@@H](C)C(=O)N[C@@H](CCCCN)C(=O)O)C(C)C	> 78.9
CC(C)C[C@H](NC(=O)[C@H](CCCCN)NC(=O)[C@H](CC(C)C)NC(=O)[C@H](CCCCN)NC(=O)CNC(=O)[C@H](CCCNC(=N)N)NC(=O)[C@H](CC(C)C)NC(=O)[C@H](Cc1ccccc1)NC(=O)[C@H](CC(N)=O)NC(=O)[C@H](CO)NC(=O)[C@H](Cc1ccc(O)cc1)NC(=O)[C@@H](NC(=O)[C@H](CCCNC(=N)N)NC(=O)[C@H](Cc1ccccc1)NC(=O)[C@@H](N)CC(C)C)C(C)C)C(=O)O	3.51
CC(C)C[C@H](NC(=O)[C@H](CCC(N)=O)NC(=O)[C@H](CCC(N)=O)NC(=O)[C@H](CC(C)C)NC(=O)[C@@H](NC(=O)[C@H](CCCNC(=N)N)NC(=O)[C@@H](N)CC(C)C)[C@@H](C)O)C(=O)N[C@@H](Cc1ccccc1)C(=O)N[C@@H](CC(C)C)C(=O)N[C@@H](CO)C(=O)N[C@H](C(=O)N[C@@H](CC(C)C)C(=O)N[C@@H](CO)C(=O)N[C@@H](Cc1ccccc1)C(=O)N[C@H](C(=O)O)C(C)C)[C@@H](C)O	0.166
CC(C)C[C@H](NC(=O)[C@H](CCC(N)=O)NC(=O)[C@H](Cc1c[nH]c2ccccc12)NC(=O)[C@H](CC(C)C)NC(=O)[C@H](CC(C)C)NC(=O)[C@H](CCCCN)NC(=O)[C@H](CCC(N)=O)NC(=O)[C@H](CO)NC(=O)[C@H](CCC(N)=O)NC(=O)[C@H](CS)NC(=O)[C@H](CC(N)=O)NC(=O)[C@H](CO)NC(=O)[C@H](CO)NC(=O)[C@@H](N)CCCNC(=N)N)C(=O)N[C@@H](CC(N)=O)C(=O)O	4.06
CC[C@H](C)[C@H](NC(=O)[C@H](CCCNC(=N)N)NC(=O)CNC(=O)[C@@H](N)Cc1ccc(O)cc1)C(=O)N[C@@H](CC(C)C)C(=O)N[C@@H](Cc1c[nH]cn1)C(=O)N[C@@H](Cc1ccc(O)cc1)C(=O)N[C@@H](CC(C)C)C(=O)N[C@@H](CCCCN)C(=O)N[C@@H](C)C(=O)N[C@@H](CCCCN)C(=O)N[C@@H](CCC(=O)O)C(=O)N[C@@H](CC(=O)O)C(=O)N[C@@H](CO)C(=O)N[C@@H](Cc1c[nH]cn1)C(=O)O	7.58

Same assay, conditions: read-out: DRB1 *0901

Molecule	IC50 [µM]
YDFVFADLRIVYRNG	5.42

Target: HLA-DR DRB1*1101 (DR11) (Homo sapiens, UniProt P01903+P01911, A100R/A169T/A87E/I96F/K41T/L162R/M171V/P40S/Q125H/Q178H/Q39Y/Q99D/R42S/S66Y/T262R/V115G/W38E)
Test: biochemical
Assay type: binding
Details: DRB1 *1101

Molecule	IC50 [µM]
CC[C@H](C)[C@H](NC(=O)[C@H](CCC(=O)O)NC(=O)[C@H](CC(C)C)NC(=O)[C@H](C)NC(=O)[C@H](CO)NC(=O)[C@H](CO)NC(=O)[C@H](CC(C)C)NC(=O)[C@H](CCC(=O)O)NC(=O)[C@H](Cc1c[nH]cn1)NC(=O)[C@H](CC(C)C)NC(=O)[C@H](CCCCN)NC(=O)[C@H](CCCNC(=N)N)NC(=O)[C@@H]1CCCN1)C(=O)N1CCC[C@H]1C(=O)N[C@@H](Cc1ccc(O)cc1)C(=O)O	5.99
